Measured values: BindingDB's records for doi:10.1073/pnas.71.5.1725 (1974)

By UniProt entry, the sequences of proteins in these tests, tags left out.
UniProt P10980, whole entry: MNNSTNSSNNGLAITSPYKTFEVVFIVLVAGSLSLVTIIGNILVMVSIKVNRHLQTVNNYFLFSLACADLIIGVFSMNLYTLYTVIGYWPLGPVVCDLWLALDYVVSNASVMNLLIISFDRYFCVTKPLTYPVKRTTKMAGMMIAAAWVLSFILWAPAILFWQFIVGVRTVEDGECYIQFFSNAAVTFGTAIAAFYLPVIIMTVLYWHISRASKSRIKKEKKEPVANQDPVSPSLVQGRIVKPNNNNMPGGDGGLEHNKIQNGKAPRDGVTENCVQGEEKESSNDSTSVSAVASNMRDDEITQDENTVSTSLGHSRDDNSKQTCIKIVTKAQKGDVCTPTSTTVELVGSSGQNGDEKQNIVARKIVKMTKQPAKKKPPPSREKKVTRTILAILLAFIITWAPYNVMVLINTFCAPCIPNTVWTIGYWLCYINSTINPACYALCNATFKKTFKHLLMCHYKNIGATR

Biological target: Muscarinic acetylcholine receptor M2 (Rattus norvegicus, UniProt P10980)

Structure (SMILES): CN1C2CC(OC(=O)C(CO)c3ccccc3)CC1C1OC12 (stereo unspecified) [3-hydroxy-2-phenyl-propionic acid 9-methyl-3-oxa-9-aza-tricyclo[3.3.1.0*2,4*]non-7-yl ester]
- Ki: 800 pM
